Binding of CDR-mutated scFvs to a peptide of the spike HR2 region

Target: peptide PDVDLGDISGINAS, taken from heptad repeat 2 (HR2) of SARS-CoV-2 spike.

Each scFv is VH, three GGGGS repeats, VL, as in the parent Ab-95, and differs from it in the CDRs of the light chain only.
VH: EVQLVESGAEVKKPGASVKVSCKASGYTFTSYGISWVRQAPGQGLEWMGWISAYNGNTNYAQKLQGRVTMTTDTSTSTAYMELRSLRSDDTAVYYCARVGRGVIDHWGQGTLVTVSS
VL: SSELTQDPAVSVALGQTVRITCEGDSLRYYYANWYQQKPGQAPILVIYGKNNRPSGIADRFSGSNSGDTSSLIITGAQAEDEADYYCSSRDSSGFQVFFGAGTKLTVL

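Variants in AAYL52 differ from the parent at up to three CDR positions; double and triple changes were sampled at random. The scFvs were displayed on barcoded MATa yeast, the peptide on MATalpha yeast. Mating (16 h, 30 °C) was followed by selection of diploids and sequencing of their barcodes. A regression on co-assayed BCL2-family reference pairs converts the normalised counts of each replicate to an apparent Kd. Each pool was mated in three replicate cultures.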

Changes read parent residue, position, new residue, counted from the first residue of the VL shown.
Numbers give log10(Kd / nM), so 0 is 1 nM and 3 is 1 µM. Smaller is tighter.
A mean of the replicates is given; it leaves out those without a signal.
An entry "not detected" has no value in the source: the pair was not observed among the diploids in any replicate. This suggests poor binding but is not conclusive.
Three control strains display no target. For library AAYL52, 28% of the pairings with them gave a signal, with a median of 3.91 and one signal in twenty below 2.90, so weak values seen in few replicates may be background.
In this assay the parent's reference entry averaged 2.31; its copy inside this library read 2.25.

log10 Kd (nM), mean	replicates with signal	changes
3.85	2 of 3	N51K F95D Q96F
3.56	1 of 3	D91G S92Y
2.74	3 of 3	N52G S89A G94A
2.80	3 of 3	Y31R S89A V97Y
3.67	2 of 3	L27A D91Y S93T
5.89	1 of 3	S26H S88F S93P
4.36	1 of 3	N33T Q96K V97C
2.46	1 of 3	N51Y R53T V97G
3.76	1 of 3	D25Q S89W F95P
3.80	2 of 3	Y31L G49P S89L
4.31	1 of 3	N33G S92W F95P
3.05	3 of 3	D25Y K50T S88A
3.55	2 of 3	L27G Y31E G94L
2.57	3 of 3	E23H G94F F95D
4.89	2 of 3	E23F G24N L27N
4.11	3 of 3	S26K K50Y D91E
4.39	2 of 3	R28P N51Y R53V
3.83	1 of 3	S26I N33G S93F
0.92	3 of 3	Y29G Y30N Q96E
1.69	3 of 3	S89A S92D Q96N
2.75	3 of 3	R28S A32S R90W
4.18	1 of 3	S26M R90M
3.66	3 of 3	D25P G49E V97P
0.71	3 of 3	Y30N K50A S55I
2.25	3 of 3	Y29G A32N Q96N
3.80	2 of 3	Y30N G49I D91S
not detected	0 of 3	R90Q D91T G94D
3.02	3 of 3	S88N R90D S92T
3.62	3 of 3	R53I F95T F98P
2.89	3 of 3	R28E A32N K50N
5.00	1 of 3	R53W S93Y V97G
3.07	3 of 3	N33K R53T F95G
2.43	3 of 3	D25G K50R
3.67	2 of 3	Y31N S92P V97A
4.08	1 of 3	R53M D91L F95D
3.06	3 of 3	G24D L27E N33S
4.64	2 of 3	E23P P54K G94D
2.97	3 of 3	S55P G94A
4.25	3 of 3	E23N A32E D91V
2.89	3 of 3	S26G Y29F F98P
3.50	3 of 3	L27Q A32M V97E
4.10	1 of 3	E23V Y31L A32L
not detected	0 of 3	L27K G94N
3.67	3 of 3	Y29S N51R G94Q
4.20	2 of 3	Y30W N51F S92E
4.44	1 of 3	R28Q N51L V97A
2.34	3 of 3	Y30L S88D S89N
4.44	1 of 3	D25L L27Q P54G
3.63	1 of 3	Y30N A32T D91C
3.20	3 of 3	Y30I Y31S F98E
2.08	3 of 3	S88A S92E
1.21	3 of 3	K50G S55A
2.26	3 of 3	G94P F95A
3.76	1 of 3	G24H L27W R90F
4.17	1 of 3	Y31I N51L Q96S
4.45	1 of 3	G24Q L27Y G94I
3.29	3 of 3	R28A K50V S92M
4.22	1 of 3	D25W R28N P54L
3.51	1 of 3	E23P Y31F S89D
2.42	3 of 3	S89W S92V S93N
1.76	3 of 3	G24T S26V N52Q
2.95	3 of 3	S93E F95T Q96S

The last 9 entries again:

changes	log10 Kd (nM), mean	replicates with signal
G24H L27W R90F	3.76	1 of 3
Y31I N51L Q96S	4.17	1 of 3
G24Q L27Y G94I	4.45	1 of 3
R28A K50V S92M	3.29	3 of 3
D25W R28N P54L	4.22	1 of 3
E23P Y31F S89D	3.51	1 of 3
S89W S92V S93N	2.42	3 of 3
G24T S26V N52Q	1.76	3 of 3
S93E F95T Q96S	2.95	3 of 3

Source: Engelhart et al. 2022 (doi:10.1038/s41597-022-01779-4), MIT Lincoln Laboratory and A-Alpha Bio; data file from the FLAb repository.